Measurements taken from paper PMC2579264 (European journal of pharmacology, 2008).

Chains of the proteins cited; added tags and fusions are not shown.
UniProt P49146, whole entry: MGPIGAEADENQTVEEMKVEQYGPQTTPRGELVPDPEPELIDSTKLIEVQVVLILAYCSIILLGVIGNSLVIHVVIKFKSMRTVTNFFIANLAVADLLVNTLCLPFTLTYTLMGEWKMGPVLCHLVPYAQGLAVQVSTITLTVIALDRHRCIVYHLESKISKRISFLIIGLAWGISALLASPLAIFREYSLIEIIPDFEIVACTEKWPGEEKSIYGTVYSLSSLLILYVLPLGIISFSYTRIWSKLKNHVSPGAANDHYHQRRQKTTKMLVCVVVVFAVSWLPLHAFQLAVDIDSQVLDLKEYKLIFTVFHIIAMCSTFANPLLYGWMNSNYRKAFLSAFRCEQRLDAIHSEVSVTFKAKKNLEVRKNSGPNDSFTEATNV

Target: human neuropeptide Y Y2 receptor, wildtype (P^34D^35) (Homo sapiens, UniProt P49146)
Test: Competition binding of [^125I] PYY in particulates, wildtype Y2 receptor
Conditions: particulates from CHO cells expressing wildtype and mutated receptors (Table 1)

affinities, wildtype and mutated receptors compared: quite similar
Substance: peptide YY(1–36): non-selective Y receptor agonist; the parent peptide of peptide YY(3–36)
